Legend:
Assay in all cases: Kinase Profiling Assay
Assay type in all cases: biochemical
Conditions in all cases: peptide 100 μM
MINK(h) = molecular target: T1, MINK(h) (Homo sapiens, UniProt Q8N4C8)
T1 construct: purchased Millipore
Summary of the method: (§1)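 In this 266-kinase specificity panel, every measurement was duplicated. Transfer of labeled phosphate from ATP to a cationic substrate was quantified after the substrate adhered to an anionic filter membrane and was scintillation-counted, then related to a full-activity control.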

Amino acid sequences for entries named in this document (tags omitted). A change or cut given only in a name is not applied to a line headed by its entry. Residues count along the entry.
UniProt Q86Z02: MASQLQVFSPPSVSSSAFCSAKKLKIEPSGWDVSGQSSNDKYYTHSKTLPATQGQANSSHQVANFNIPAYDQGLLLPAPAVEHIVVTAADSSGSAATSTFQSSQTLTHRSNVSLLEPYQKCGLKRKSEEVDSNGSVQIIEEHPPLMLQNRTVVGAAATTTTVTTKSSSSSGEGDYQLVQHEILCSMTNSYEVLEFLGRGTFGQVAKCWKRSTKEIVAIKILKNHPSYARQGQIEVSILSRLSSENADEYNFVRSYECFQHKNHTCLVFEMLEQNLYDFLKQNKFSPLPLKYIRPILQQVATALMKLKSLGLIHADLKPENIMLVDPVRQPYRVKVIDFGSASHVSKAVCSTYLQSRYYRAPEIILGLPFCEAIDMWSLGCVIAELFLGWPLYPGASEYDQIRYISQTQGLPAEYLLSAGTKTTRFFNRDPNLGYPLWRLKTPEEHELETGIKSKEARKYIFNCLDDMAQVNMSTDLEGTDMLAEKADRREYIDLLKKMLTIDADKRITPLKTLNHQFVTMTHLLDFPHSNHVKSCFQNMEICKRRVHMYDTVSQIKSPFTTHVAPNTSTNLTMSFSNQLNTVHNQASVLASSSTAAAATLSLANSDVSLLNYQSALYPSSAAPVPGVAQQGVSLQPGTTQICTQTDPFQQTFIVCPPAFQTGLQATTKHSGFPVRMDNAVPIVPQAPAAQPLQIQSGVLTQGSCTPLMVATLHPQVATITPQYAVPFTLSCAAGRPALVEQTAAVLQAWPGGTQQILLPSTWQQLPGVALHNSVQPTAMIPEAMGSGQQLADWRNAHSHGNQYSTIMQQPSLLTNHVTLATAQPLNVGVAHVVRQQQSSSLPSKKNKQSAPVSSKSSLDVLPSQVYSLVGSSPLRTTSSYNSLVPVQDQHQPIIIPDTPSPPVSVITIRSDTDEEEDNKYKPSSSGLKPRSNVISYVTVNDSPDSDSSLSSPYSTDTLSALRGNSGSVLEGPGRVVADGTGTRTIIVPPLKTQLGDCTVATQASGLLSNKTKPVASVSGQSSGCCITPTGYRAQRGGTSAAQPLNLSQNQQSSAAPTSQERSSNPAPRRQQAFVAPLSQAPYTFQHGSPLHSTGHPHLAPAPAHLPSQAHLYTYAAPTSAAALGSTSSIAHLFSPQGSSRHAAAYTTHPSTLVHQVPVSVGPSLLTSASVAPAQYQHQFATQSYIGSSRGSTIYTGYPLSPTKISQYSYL
UniProt P27361, whole entry: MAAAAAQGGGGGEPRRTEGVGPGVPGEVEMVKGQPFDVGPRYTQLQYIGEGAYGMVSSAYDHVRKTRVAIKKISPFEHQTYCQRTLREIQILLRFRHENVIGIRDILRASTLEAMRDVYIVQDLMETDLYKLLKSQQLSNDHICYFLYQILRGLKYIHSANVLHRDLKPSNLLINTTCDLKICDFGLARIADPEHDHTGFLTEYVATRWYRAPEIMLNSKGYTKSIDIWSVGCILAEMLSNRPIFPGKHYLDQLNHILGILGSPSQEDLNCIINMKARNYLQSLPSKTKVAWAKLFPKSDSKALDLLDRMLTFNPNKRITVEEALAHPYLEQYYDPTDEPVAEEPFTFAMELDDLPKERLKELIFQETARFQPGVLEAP
UniProt P49841: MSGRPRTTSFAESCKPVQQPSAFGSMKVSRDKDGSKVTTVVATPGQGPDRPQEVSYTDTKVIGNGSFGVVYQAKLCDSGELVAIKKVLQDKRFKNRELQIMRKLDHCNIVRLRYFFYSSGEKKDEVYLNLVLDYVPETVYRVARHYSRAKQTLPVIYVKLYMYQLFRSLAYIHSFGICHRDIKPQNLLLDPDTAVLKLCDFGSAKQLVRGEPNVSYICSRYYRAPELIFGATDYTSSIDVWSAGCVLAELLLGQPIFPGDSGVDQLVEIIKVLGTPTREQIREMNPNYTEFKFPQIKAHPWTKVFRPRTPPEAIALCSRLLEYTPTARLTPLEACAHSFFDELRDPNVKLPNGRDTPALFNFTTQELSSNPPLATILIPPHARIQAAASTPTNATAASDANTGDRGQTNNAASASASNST
UniProt Q9P1W9: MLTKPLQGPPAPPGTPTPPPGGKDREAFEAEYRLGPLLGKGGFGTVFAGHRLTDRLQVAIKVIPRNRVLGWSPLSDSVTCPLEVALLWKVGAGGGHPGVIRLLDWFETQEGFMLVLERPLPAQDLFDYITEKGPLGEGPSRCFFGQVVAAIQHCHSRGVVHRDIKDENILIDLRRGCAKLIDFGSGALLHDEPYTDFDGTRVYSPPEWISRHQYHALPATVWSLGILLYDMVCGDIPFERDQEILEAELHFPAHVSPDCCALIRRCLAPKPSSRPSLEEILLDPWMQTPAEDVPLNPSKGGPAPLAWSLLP
UniProt P08922, 28-2347: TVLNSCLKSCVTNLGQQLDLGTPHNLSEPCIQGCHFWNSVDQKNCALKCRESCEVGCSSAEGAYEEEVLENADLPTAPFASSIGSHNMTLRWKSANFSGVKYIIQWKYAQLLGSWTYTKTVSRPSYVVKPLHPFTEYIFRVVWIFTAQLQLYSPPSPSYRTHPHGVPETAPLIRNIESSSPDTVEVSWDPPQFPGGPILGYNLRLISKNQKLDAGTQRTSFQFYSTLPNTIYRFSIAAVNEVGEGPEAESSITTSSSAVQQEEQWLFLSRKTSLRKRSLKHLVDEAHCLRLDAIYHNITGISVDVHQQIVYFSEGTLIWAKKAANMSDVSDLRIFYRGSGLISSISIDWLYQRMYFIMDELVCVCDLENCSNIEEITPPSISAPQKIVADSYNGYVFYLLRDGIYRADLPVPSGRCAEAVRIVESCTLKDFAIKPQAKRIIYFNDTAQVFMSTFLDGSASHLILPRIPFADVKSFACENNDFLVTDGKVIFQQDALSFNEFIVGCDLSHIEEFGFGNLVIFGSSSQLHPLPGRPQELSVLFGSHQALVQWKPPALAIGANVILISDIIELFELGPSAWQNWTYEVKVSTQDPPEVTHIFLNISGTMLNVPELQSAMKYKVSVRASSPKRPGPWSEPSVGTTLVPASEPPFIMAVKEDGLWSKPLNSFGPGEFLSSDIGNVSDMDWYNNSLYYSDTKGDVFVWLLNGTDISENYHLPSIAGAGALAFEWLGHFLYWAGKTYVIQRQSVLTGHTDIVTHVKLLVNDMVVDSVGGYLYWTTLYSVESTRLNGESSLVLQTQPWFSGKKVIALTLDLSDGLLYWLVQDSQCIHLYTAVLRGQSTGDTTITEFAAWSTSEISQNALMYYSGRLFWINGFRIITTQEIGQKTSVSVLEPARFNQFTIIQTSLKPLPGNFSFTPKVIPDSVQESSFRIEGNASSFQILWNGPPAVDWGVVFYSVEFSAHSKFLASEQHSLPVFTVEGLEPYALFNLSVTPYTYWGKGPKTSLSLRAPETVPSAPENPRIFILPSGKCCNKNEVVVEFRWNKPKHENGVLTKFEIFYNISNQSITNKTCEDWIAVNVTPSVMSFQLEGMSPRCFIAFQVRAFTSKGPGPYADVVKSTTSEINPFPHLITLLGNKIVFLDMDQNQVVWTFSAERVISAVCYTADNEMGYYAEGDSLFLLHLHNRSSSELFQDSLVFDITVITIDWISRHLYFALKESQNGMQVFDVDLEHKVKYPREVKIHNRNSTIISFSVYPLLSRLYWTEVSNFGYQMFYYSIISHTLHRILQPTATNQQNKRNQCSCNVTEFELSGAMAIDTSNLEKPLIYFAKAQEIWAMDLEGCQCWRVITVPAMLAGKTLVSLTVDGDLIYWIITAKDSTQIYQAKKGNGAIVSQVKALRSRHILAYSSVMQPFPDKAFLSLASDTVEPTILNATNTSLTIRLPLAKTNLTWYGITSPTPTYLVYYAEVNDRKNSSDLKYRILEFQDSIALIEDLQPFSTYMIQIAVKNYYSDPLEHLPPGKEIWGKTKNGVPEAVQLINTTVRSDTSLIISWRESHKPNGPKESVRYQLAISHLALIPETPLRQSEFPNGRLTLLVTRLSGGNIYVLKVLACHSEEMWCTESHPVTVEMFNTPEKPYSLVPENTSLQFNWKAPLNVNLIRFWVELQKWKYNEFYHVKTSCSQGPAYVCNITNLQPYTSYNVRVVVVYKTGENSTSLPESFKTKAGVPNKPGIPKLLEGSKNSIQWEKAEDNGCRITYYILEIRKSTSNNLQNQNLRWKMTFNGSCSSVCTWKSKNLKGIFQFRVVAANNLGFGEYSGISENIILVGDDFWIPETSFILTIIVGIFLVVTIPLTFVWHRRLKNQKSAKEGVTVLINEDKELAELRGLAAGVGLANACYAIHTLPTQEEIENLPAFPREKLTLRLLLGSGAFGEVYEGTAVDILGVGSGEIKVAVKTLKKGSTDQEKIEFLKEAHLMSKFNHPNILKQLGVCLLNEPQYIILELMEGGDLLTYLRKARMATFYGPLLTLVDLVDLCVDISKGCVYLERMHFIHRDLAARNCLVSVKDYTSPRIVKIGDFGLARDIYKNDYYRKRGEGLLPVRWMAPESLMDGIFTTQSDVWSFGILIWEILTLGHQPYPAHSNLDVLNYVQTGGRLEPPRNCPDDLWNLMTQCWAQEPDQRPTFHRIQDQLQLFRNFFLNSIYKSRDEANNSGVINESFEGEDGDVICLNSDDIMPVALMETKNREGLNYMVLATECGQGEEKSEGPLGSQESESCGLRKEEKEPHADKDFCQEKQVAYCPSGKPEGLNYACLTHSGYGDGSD
UniProt Q99683: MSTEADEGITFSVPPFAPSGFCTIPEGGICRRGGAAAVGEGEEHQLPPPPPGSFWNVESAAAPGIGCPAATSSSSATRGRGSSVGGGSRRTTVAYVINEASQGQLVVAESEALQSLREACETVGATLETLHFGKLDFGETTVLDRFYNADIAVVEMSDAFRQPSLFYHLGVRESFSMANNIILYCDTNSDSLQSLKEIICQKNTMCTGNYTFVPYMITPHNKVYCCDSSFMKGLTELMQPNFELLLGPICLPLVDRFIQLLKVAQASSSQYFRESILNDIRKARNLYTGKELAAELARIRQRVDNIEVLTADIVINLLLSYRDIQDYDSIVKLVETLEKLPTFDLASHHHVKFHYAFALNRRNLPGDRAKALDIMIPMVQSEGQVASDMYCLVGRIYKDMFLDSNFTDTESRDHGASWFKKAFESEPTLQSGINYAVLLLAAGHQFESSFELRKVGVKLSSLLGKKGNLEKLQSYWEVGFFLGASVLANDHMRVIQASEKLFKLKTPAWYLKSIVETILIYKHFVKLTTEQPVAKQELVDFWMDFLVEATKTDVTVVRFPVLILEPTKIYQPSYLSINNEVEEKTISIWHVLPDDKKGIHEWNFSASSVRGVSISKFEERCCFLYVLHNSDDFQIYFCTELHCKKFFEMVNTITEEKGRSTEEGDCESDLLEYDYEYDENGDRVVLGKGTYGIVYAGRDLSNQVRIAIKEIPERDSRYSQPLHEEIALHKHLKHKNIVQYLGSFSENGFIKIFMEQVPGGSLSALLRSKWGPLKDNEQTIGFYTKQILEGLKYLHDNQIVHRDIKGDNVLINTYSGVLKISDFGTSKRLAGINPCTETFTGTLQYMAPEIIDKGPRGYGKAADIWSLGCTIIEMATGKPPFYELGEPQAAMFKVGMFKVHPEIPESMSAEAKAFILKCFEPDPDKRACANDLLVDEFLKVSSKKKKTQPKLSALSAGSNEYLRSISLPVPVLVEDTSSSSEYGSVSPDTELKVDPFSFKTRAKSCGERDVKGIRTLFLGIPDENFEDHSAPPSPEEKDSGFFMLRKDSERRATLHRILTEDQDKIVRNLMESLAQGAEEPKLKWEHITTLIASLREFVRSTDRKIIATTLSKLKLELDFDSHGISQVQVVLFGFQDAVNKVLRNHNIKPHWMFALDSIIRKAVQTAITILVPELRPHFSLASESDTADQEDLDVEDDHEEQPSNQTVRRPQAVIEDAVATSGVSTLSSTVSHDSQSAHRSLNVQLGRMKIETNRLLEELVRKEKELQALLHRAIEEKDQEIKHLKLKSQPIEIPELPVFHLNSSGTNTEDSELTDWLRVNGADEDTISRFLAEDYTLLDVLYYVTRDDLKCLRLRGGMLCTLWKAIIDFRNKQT
UniProt Q9HC98: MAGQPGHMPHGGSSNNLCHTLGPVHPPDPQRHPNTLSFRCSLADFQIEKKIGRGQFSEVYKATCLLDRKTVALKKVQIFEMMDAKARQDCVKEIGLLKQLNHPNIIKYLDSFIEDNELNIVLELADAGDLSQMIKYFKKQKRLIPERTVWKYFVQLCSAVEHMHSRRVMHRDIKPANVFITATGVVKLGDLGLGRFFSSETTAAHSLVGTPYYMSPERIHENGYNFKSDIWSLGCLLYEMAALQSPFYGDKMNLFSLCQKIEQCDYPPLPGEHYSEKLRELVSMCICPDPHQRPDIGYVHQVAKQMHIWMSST

HIPK1(h) = molecular target: T2, HIPK1(h) (Homo sapiens, UniProt Q86Z02)
T2 construct: purchased Millipore
Summary of the method: as §1

PRAK(h) = molecular target: T3, PRAK(h) (Homo sapiens, UniProt Q8IW41)
T3 sequence (Q8IW41 1-473): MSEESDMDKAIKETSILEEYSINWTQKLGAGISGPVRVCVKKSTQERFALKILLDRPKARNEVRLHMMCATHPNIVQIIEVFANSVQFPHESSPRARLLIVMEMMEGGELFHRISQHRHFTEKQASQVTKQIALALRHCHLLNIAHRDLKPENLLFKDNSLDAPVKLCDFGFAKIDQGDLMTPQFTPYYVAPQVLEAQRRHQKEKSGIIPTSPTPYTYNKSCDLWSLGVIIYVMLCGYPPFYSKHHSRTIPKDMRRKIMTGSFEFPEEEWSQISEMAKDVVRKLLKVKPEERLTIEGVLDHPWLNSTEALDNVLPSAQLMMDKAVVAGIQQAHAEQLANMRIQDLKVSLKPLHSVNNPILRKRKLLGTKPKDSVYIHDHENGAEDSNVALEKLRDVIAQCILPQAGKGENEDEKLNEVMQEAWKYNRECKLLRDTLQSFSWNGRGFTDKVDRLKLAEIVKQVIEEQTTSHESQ
Summary of the method: as §1

cKit(V654A)(h) = cKit(V654A)(h) (Homo sapiens, UniProt P10721, V654A)
Summary of the method: as §1

BTK(R28H)(h) = BTK(R28H)(h) (Homo sapiens, UniProt Q06187, R28H)
Summary of the method: as §1

Flt4(h) = Flt4(h) (Homo sapiens, UniProt P35916)
Summary of the method: as §1

MAPK1(h) = molecular target: T4, MAPK1(h) (Homo sapiens, UniProt P27361)
T4 construct: purchased Millipore
Summary of the method: as §1

PKBα(h) = PKBα(h) (Homo sapiens, UniProt P31749)
Summary of the method: as §1

JNK3(h) = molecular target: T5, JNK3(h) (Homo sapiens, UniProt P53779)
T5 construct: purchased Millipore
Summary of the method: as §1

PKCβI(h) = PKCβI(h) (Homo sapiens, UniProt P05771)
Summary of the method: as §1

GSK3β(h) = molecular target: T6, GSK3β(h) (Homo sapiens, UniProt P49841)
T6 construct: purchased Millipore
Summary of the method: as §1

CaMKIδ(h) = CaMKIδ(h) (Homo sapiens, UniProt Q8IU85)
Summary of the method: as §1

PKCε(h) = PKCε(h) (Homo sapiens, UniProt Q02156)
Summary of the method: as §1

PAK5(h) = PAK5(h) (Homo sapiens, UniProt Q9P286)
Summary of the method: as §1

Syk(h) = molecular target: T7, Syk(h) (Homo sapiens, UniProt P43405)
T7 construct: purchased Millipore
Summary of the method: as §1

Pim-2(h) = Pim-2(h) (Homo sapiens, UniProt Q9P1W9)
Summary of the method: as §1

Fer(h) = Fer(h) (Homo sapiens, UniProt P16591)
Summary of the method: as §1

PDGFRβ(h) = PDGFRβ(h) (Homo sapiens, UniProt P09619)
Summary of the method: as §1

Ros(h) = Ros(h) (Homo sapiens, UniProt P08922)
Summary of the method: as §1

MSK1(h) = molecular target: T8, MSK1(h) (Homo sapiens, UniProt O75582)
T8 construct: purchased Millipore
Summary of the method: as §1

FGFR2(h) = FGFR2(h) (Homo sapiens, UniProt P21802)
Summary of the method: as §1

EGFR(T790M, L858R)(h) = EGFR(T790M, L858R)(h) (Homo sapiens, UniProt P00533, L858R/T790M)
Summary of the method: as §1

cSRC(h) = cSRC(h) (Homo sapiens, UniProt P12931)
Summary of the method: as §1

Fes(h) = Fes(h) (Homo sapiens, UniProt P07332)
Summary of the method: as §1

SAPK2b(h) = molecular target: T9, SAPK2b(h) (Homo sapiens, UniProt Q15759)
T9 construct: purchased Millipore
Summary of the method: as §1

DAPK2(h) = DAPK2(h) (Homo sapiens, UniProt Q9UIK4)
Summary of the method: as §1

ASK1(h) = ASK1(h) (Homo sapiens, UniProt Q99683)
Summary of the method: as §1

NEK6(h) = molecular target: T10, NEK6(h) (Homo sapiens, UniProt Q9HC98)
T10 construct: purchased Millipore
Summary of the method: as §1

TBK1(h) = molecular target: T11, TBK1(h) (Homo sapiens, UniProt Q9UHD2)
T11 construct: purchased Millipore
Summary of the method: as §1

CK2(h) = CK2(h) (Homo sapiens, UniProt P68400)
Summary of the method: as §1

Met(M1268T)(h) = molecular target: T12, Met(M1268T)(h) (Homo sapiens, UniProt P08581, M1250T)
T12 construct: purchased Millipore
Summary of the method: as §1

Which “% activity” value (MINK(h)) does the source give for “YARAAARQARAKALNRQLGVA (Mammal) [MMI-0200]” here?
The value was 103%.

And the “% activity” value (HIPK1(h))?
Its value is 115%.

And the “% activity” value (PRAK(h))?
Its value is 115%.

And the “% activity” value (cKit(V654A)(h))?
The value was 113%.

And the “% activity” value (BTK(R28H)(h))?
The value was 104%.

And the “% activity” value (Flt4(h))?
Its value is 105%.

Which “% activity” value (MAPK1(h)) does the source give for FAKLAARLYRKALARQLGVAA [MMI-0300] here?
The value was 107%.

Which results are given for `CC(C)C[C@H](NC(=O)[C@H](C)NC(=O)[C@H](CCCCN)NC(=O)[C@H](C)NC(=O)[C@H](CCCNC(=N)N)NC(=O)[C@H](C)NC(=O)[C@H](CCC(N)=O)NC(=O)[C@H](CCCNC(=N)N)NC(=O)[C@H](C)NC(=O)[C@H](C)NC(=O)[C@H](C)NC(=O)[C@H](CCCNC(=N)N)NC(=O)[C@H](C)NC(=O)[C@@H](N)Cc1ccc(O)cc1)C(=O)N[C@@H](C)C(=O)N[C@@H](CCCNC(=N)N)C(=O)N[C@@H](CCC(N)=O)C(=O)N[C@@H](CC(C)C)C(=O)NCC(=O)N[C@H](C(=O)N[C@@H](C)C(=O)N[C@@H](C)C(=O)O)C(C)C` [MMI-0100]?
% activity (PKBα(h)): 140%; % activity (JNK3(h)): 104%; % activity (PKCβI(h)): 88%; % activity (GSK3β(h)): 113%; % activity (CaMKIδ(h)): 59%; % activity (PKCε(h)): 102%; % activity (PAK5(h)): 97%; % activity (Syk(h)): 45%; % activity (Pim-2(h)): 117%; % activity (Fer(h)): 117%; % activity (PDGFRβ(h)): 116%; % activity (Ros(h)): 107%; % activity (MSK1(h)): 52%; % activity (FGFR2(h)): 49%; % activity (EGFR(T790M, L858R)(h)): 93%; % activity (cSRC(h)): 70%; % activity (Fes(h)): 44%; % activity (SAPK2b(h)): 99%; % activity (DAPK2(h)): 41%; % activity (ASK1(h)): 100%; % activity (NEK6(h)): 109%; % activity (TBK1(h)): 106%; % activity (CK2(h)): 90%; % activity (Met(M1268T)(h)): 114%

Reference: patent US20150258192A1, “COMPOSITIONS AND METHODS FOR PREVENTING OR TREATING CHRONIC LUNG ALLOGRAFT DYSFUNCTION (CLAD) AND IDIOPATHIC PULMONARY FIBROSIS (IPF)” (priority 2014, published 2015)
